Results published in PMC8972069 (Nuclear medicine and biology, 2020).

By UniProt entry, the sequences of proteins in these tests, tags left out. Where a name states a change or a piece, a line headed by the entry shows the natural chain unless it says otherwise.
UniProt P47752: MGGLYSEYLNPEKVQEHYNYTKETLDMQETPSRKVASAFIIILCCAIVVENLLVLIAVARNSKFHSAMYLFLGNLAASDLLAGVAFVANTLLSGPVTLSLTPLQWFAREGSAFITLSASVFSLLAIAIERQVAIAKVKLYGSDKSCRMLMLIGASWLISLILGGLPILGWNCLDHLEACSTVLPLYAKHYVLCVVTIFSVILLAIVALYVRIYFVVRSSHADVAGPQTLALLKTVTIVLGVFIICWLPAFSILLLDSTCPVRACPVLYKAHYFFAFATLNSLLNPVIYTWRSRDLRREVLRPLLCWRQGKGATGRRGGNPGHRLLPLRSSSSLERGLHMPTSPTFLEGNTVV

Molecular target: S1PR2 in rat kidney sections (Rattus norvegicus, UniProt P47752)
Assay type: binding, Sprague-Dawely (SD) rats
Conditions: 10 μM JTE-013, diabetic and control rats

JTE-013
Blocking of [^125I]TZ6544 binding to kidney tissue: could be blocked; also recorded: reduced the binding

Entries after “also recorded” stand apart in the source; their conditions may differ.
